Format in all cases: cell-based
The target of experiment [1] is T1, total level of KIT in UT7/EPO cells (Homo sapiens, UniProt P10721).
T1 construct: endogenous in cells; host or cells: UT-7/EPO human erythroleukemic cells
The experiment is described as follows: Total KIT level by Western blot in UT7/EPO cells. Particulars: UT7/EPO with EPO. How it is done:
FIG. 4: Antibody modulation of KIT levels in a WT context. KIT levels were estimated by FACS (A, B) using non competing 104D2-anti-KIT antibody. (A) UT7/EPO cells were incubated in complete IMDM medium complemented with EPO for 1, 4, or 24 hrs or with scFv-Fc antibodies (10 μg/mL) or CHO-KL diluted 500 times. (B) UT7/EPO cells were incubated in complete IMDM medium complemented with EPO, alone or with CHO-KL or antibodies (5 or 50 μg/mL) or with CHO-KL (diluted 500 times) alone, as indicated. NM: non marked cells. Results expressed in MFI (Mean fluorescence intensity). Total KIT levels were also determined by Western blot (C) using KIT and phospho-KIT specific antibodies as indicated. Cells were incubated for 5 days before analysis, both with 10 μg/mL of antibodies.
First, they analysed short term effect of anti-KIT compared to SCF treatment. […] Cell surface down-regulation remained stable after 24 hrs, both in the presence of antibodies or ligand even though after 2 hours of treatment, KIT surface levels started to increase slightly due, at least partially, to increased synthesis since this increase was inhibited by CHX (not shown). […] Then, they analyzed long term effect of scFv-Fc treatment (FIG. 4B). […] They also measured total level of KIT by Western blot upon antibody short or long treatment of UT7/EPO cells cultivated with EPO.
(In western blotting, separated proteins are transferred to a membrane and probed.)

Amino acid sequences for entries named in this document (tags omitted). Residues count along the entry.
UniProt P10721, 26-976: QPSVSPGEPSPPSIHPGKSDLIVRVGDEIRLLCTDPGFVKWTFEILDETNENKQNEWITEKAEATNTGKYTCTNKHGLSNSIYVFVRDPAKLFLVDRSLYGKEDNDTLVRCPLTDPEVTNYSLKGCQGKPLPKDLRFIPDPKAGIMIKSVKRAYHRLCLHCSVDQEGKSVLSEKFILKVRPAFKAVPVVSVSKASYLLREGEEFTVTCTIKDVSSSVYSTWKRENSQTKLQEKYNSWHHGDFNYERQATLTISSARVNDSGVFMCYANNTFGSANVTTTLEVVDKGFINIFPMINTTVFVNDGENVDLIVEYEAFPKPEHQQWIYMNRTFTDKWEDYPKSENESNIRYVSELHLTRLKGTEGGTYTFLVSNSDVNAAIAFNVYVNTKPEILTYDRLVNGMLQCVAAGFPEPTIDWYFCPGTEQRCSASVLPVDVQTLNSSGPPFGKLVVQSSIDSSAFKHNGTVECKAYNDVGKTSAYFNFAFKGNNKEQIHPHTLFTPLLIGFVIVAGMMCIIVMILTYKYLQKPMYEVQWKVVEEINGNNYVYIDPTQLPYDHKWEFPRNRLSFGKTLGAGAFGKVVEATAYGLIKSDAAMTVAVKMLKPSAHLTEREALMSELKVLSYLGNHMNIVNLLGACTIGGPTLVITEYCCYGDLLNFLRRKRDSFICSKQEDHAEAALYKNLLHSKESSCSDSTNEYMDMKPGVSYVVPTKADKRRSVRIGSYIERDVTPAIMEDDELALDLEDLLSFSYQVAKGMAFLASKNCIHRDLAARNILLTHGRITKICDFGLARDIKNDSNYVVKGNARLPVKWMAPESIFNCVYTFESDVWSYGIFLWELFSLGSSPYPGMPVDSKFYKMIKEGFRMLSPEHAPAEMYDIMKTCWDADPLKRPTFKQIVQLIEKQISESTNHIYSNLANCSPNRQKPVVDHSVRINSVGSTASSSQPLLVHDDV
UniProt P10721, 26-976 V560G: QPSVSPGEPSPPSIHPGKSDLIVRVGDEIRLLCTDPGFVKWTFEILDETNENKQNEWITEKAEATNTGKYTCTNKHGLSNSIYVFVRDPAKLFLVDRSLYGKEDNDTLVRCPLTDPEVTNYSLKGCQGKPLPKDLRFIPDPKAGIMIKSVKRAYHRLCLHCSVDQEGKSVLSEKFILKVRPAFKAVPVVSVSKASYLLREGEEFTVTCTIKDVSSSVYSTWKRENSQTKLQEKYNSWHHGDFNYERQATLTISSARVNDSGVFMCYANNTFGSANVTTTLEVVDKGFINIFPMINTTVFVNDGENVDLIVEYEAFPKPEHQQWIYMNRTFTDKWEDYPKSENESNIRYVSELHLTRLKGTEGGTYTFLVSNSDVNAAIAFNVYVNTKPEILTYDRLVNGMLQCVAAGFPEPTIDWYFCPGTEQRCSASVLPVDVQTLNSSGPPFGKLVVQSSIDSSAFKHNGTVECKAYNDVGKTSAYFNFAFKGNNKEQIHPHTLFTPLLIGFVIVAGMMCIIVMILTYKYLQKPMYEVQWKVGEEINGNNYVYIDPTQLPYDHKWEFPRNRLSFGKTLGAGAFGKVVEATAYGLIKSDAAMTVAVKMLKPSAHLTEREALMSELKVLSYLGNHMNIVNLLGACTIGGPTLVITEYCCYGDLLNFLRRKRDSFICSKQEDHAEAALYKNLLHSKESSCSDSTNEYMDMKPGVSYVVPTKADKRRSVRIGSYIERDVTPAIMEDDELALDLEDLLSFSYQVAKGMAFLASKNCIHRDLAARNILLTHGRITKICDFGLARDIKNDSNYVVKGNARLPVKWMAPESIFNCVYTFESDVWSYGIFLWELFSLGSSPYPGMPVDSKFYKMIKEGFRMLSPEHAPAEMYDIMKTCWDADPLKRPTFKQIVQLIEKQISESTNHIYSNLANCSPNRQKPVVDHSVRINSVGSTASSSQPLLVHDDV

Experiment [2] concerns the target T2, KIT surface level on UT-7/EPO cells (wild type KIT) (Homo sapiens, UniProt P10721).
T2 construct: endogenous in cells; host or cells: UT-7/EPO human erythroleukemic cells
Kind of experiment: Internalization assay: KIT surface level by FACS with 104D2 on UT-7/EPO cells.

The target of experiment [3] is T3, KIT surface level on HMC1.1 cells (Homo sapiens, UniProt P10721, V560G).
T3 construct: endogenous in cells; host or cells: HMC1.1 mastocytoma cells
Kind of experiment: Internalization assay: KIT surface level by FACS on HMC1.1 cells. As to the method: FIG. 5: Antibody modulation of oncogenic KIT. […] Cell viability is expressed in % compared to non treated cells. […] As indicated and analyzed (B) by FACS using 104D2 anti-KIT antibody or (C) by western blot using anti-KIT and phospho-specific anti-KIT antibodies. (D) Three days treatment with anti-KIT antibodies maintained a low level of KIT on both mastocytoma cell lines. […] Cells were washed at room temperature with PBS, fixed for 15 min. at 4° C. (Cytofix, BD biosciences) and stained with the non-competing anti-human KIT 104D2-conjugated to PE/Cy7 and analyzed by FACS as mentioned above.
On the technique in general: In flow cytometry, cells or beads pass a laser one at a time.

Regarding “SCF: KIT ligand; recombinant human SCF or CHO-KL supernatant (mouse SCF) used as source”, the “KIT total levels, short treatment” value in experiment [1] (after 24 hours) is “not drastically affected”. The “KIT total levels, long term treatment” value in experiment [1] (long term (5 days), 10 μg/mL) was “reduced drastically KIT levels”. In addition, the “KIT surface levels after long term treatment” value in experiment [2] (5 days, UT7/EPO cells cultivated in EPO) is on record as “did not modulate KIT levels”. In experiment [2] (after 1 hour, UT-7/EPO in EPO, scFv-Fc 10 μg/mL or CHO-KL diluted 500 times), this substance showed a KIT surface down-regulation of 70%. The “KIT surface levels on HMC1.1 after 24 hr” value in experiment [3] is listed as “almost reached initial level”.

The record behind these values is patent US9932410B2, “Human neutralizing anti-kit antibodies and uses thereof” (INSERM (Institut National de la Sante et de la Recherche …, priority 2013, dated 2018).
